We go through one molecule from article PMC5610936 (Biochemical pharmacology, 2017).

What all share (type): cell-based
Experiment [1] deals with T1, NOX4 (Homo sapiens, UniProt Q9NPH5).
T1 sequence (Q9NPH5 1-578): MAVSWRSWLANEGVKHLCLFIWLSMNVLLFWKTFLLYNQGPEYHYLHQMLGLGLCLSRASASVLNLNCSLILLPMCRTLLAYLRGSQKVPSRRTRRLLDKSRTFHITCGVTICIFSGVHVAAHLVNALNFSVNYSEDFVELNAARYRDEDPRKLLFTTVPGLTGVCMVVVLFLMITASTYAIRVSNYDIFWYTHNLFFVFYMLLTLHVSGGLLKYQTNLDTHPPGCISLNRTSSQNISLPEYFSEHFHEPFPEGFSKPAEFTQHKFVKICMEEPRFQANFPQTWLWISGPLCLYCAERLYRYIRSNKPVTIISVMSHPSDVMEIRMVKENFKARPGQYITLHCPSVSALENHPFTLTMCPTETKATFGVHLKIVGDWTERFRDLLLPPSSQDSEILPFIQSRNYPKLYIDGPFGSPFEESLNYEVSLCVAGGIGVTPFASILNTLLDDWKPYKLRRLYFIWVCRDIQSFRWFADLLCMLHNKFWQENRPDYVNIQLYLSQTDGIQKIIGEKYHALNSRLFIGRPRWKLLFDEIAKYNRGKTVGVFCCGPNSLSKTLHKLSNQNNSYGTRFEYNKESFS
T1 sequence (P13498 2-195 partner limits assumed): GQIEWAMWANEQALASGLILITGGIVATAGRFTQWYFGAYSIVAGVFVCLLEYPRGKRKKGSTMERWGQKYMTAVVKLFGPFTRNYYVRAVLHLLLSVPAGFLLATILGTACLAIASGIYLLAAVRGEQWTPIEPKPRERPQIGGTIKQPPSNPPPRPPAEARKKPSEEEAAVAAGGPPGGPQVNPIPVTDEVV
The experiment in a line: Amplex Red extracellular H2O2 assay, HEK293 NOX4 cells.

The target of experiment [2] is T2, NOX2 (Homo sapiens, UniProt P04839). The experiment in a line: PMA-induced superoxide anion luminescence assay, PMNs.
In experiment [3] the target is T2, NOX2. The experiment in a line: PMA-induced superoxide anion luminescence assay, differentiated HL-60 cells.
For experiment [4], the target named is T3, NOX5 (Homo sapiens, UniProt Q96PH1).
T3 sequence (Q96PH1 1-765): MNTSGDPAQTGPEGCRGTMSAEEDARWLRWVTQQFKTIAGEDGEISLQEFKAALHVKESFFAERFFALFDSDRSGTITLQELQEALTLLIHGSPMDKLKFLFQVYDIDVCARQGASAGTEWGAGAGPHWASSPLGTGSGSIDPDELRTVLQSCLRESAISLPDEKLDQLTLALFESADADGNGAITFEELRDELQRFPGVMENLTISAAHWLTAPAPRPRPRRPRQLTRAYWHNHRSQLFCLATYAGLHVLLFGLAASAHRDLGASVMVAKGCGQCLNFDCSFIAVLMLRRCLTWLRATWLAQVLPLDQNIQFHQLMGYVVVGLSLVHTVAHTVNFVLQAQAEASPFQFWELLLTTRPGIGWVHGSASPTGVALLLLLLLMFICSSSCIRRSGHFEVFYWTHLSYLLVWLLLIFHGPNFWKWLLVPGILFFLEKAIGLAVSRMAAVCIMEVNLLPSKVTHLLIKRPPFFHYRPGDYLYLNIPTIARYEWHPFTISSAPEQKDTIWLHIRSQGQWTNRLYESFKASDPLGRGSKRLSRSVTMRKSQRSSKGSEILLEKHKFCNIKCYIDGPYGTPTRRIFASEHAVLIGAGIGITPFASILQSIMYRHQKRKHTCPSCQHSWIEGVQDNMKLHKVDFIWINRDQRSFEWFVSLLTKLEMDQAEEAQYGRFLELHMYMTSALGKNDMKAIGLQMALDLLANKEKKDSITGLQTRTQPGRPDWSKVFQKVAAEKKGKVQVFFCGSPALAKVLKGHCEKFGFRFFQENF
The experiment is described as follows: PMA-induced superoxide anion luminescence assay, UACC-257 cells.

Experiment [5] addresses NOX1 (Homo sapiens, UniProt Q9Y5S8). The experiment in a line: PMA-induced superoxide anion luminescence assay, HEK293 NOX1 cells.

Consider `O=[N+]([O-])c1ccc2c(c1)[I+]c1ccccc1-2.[Cl-]` [compound 428, Dibenz[b,d]iodolium, 3-nitro-, chloride], for which the IC50 in experiment [1] was found to be 260 ± 254 nM; in experiment [2], 324 ± 144 nM; in experiment [3], 57 ± 35 nM; in experiment [4], 35 ± 21 nM; in experiment [5], 136 ± 81 nM. For the same molecule, the “fold more potent in HL-60 leukemia line compared to PMNs” value in experiment [3] is reported as 2- to 5 fold.
